# Measured values: PMC4864078, “De Novo Transcriptome Analysis and Detection of Antimicrobial Peptides of the American Cockroach Periplaneta americana (Linnaeus)” (PLoS ONE, 2016)
# Experiments:
# [1] = tested on: S. aureus (ATCC 25923); assay type: cell-based, Staphylococcus aureus; conditions: Mueller-Hinton Broth, 2 × 10^4 CFU/mL, 18 h at 37°C, visible turbidity, complete growth inhibition
# Procedure: (§1) The bacterial strains E. coli (KACC 13821, ATCC 11775) and Staphylococcus aureus (KACC 10768, ATCC 25923), and the yeast strain Candida albicans (KCTC 7121, ATCC 14053) were purchased from the Korean Agricultural Culture Collection (KACC) and Korean Collection for Type Cultures (KCTC). Both bacteria and the yeast were cultivated overnight in tryptic soy broth (TSB; Difco, USA) at 200 rpm in a 37°C shaking incubator to the stationary phase. Bacteria were cultivated for 3 h in fresh TSB medium under the same condition to the log phase. The strains were stored with 15% glycerol at −70°C until use.
# (§2) In addition, antimicrobial activities of the peptides were also tested by broth microdilution assays against E. coli, S. aureus, and C. albicans. Briefly, microbes were grown overnight in Mueller-Hinton Broth (MHB) to the onset of the stationary phase with shaking at 200 rpm. The cultures were diluted in fresh MHB to a final concentration of 2 × 10^4 CFU/mL. A stock solution of each peptide was prepared to a concentration of 640 μg/mL in 0.01% acetic acid, and was then serially diluted two-fold to reach a concentration of 10 μg/mL. […] The antimicrobial activities of the peptides were assessed by measuring the visible turbidity in each well of the plate after 18 h of incubation at 37°C. Minimum inhibitory concentrations (MICs) are expressed as a specific value that caused complete growth inhibition.
# [2] = tested on: E. coli (ATCC 11775); assay type: cell-based, Escherichia coli; conditions: Mueller-Hinton Broth, 2 × 10^4 CFU/mL, 18 h at 37°C, visible turbidity, complete growth inhibition
# Procedure: as §1, §2
smiles,measurement,setting,value
"CC[C@H](C)[C@H](NC(=O)CN)C(=O)NCC(=O)N[C@@H](C)C(=O)N[C@H](C(=O)N[C@@H](CC(C)C)C(=O)N[C@@H](CCCCN)C(=O)N[C@H](C(=O)N[C@@H](CC(C)C)C(=O)N[C@H](C(=O)N[C@H](C(=O)NCC(=O)N[C@@H](CC(C)C)C(=O)N1CCC[C@H]1C(=O)N[C@@H](C)C(=O)N[C@@H](CC(C)C)C(=O)N[C@H](C(=O)N[C@@H](CO)C(=O)N[C@@H](Cc1c[nH]c2ccccc12)C(=O)N[C@H](C(=O)N[C@@H](CCCCN)C(=O)N[C@@H](CCCNC(=N)N)C(=O)N[C@@H](CCCCN)C(=O)N[C@@H](CCCNC(=N)N)C(=O)N[C@@H](CCC(N)=O)C(=O)N[C@@H](CCC(N)=O)C(N)=O)[C@@H](C)CC)[C@@H](C)CC)[C@@H](C)O)[C@@H](C)O)C(C)C)C(C)C [Melittin, reference compound]",Minimum Inhibitory Concentration (MIC),[1],4 µg/mL
same,Minimum Inhibitory Concentration (MIC),[2],8 µg/mL
